Assay results published in patent US20230263786A1, “MODULATION OF DRUG-DRUG INTERACTIONS OF VADADUSTAT” (Akebia Therapeutics, Inc., priority 2020, published 2023).
Several values for one entry are separate records, joined by “and”; a condition that tells them apart may be missing. Equal entries are not always repeated.

Protein sequences, listed by entry. Tags and fused reporters are not part of them. Lines headed by an entry give the natural chain unless they say otherwise; changes in a name come on top.
UniProt Q9GZT9: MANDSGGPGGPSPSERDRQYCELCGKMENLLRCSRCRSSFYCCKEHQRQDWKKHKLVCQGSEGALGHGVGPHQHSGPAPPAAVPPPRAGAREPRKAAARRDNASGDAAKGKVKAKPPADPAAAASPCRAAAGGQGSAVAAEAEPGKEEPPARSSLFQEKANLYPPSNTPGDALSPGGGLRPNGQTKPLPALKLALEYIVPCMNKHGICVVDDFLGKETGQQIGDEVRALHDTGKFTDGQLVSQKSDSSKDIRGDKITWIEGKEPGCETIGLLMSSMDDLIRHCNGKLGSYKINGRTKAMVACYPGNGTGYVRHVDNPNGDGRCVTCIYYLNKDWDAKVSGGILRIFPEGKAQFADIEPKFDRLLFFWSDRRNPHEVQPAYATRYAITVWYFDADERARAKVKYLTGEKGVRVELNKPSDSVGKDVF

Tests used:
[1] = Influence of meal on pharmacokinetics, single 450 mg dose; type: in vivo, human; settings: healthy adult males
Experimental: The median tmax of this drug was prolonged by postprandial administration for about 1.5 hours as compared with fasting.

[2] = Phase 1 oral iron interaction study, Cohort 1 (after meal): sodium ferrous citrate, ferric citrate hydrate; type: in vivo, human; settings: for AUC0-∞, Ratio of geometric mean value Combined/alone / Cmax, Ratio of geometric mean value Combined/alone: Compound 1 150 mg, simultaneous
Experimental: (§1) A phase 1, single-dose, open-label, randomized, crossover study was conducted in 61 healthy adult male subjects to evaluate the pharmacokinetics and safety of Compound 1 when Compound 1 and oral iron or iron-containing phosphate binders were co-administered.
(§2) Cohort 2 and Cohort 3 were confined to the study site for 7 nights and 8 days. • Post-administration tests: performed 3 days after administration of the last dose of the study drug.
(§3) Pharmacokinetics. […] For each evaluation period, the plasma concentration of unchanged Compound 1 will be assayed, and the following parameters calculated by non-compartmental analysis: AUC0-inf, Cmax, AUC0-last, Kel, and t1/2.
In Cohort 1, 21 subjects were further randomized into 3 groups (7 subjects per group) and the evaluation period was divided into 3 periods during the study:
(§4) Administration of vadadustat tablets alone: after fasting for at least 10 hours, subjects would eat breakfast over a period of 10 minutes, then immediately after finishing the meal (5 minutes after finishing the meal), 1 vadadustat tablet (150 mg) would be taken orally with 200 mL of water (extra water may be drunk if more is needed when taking the tablet, and the extra volume would be recorded). After breakfast, subjects would fast until the end of the collection of blood samples at 4 hours after administration of the study drug. Subjects would eat lunch over a period of 20 minutes after blood samples were collected at 4 hours after administration of the study drug. After lunch, subjects would fast until dinner, when they would eat dinner over a period of 20 minutes at 10 hours after administration of the study drug. Subjects would fast from dinner until breakfast the next morning.
as §4, with “and sodium ferrous citrate:” for “alone:”, “mg) and 4 tablets of sodium ferrous citrate (containing 200 mg of iron)” for “mg)”, “tablets,” for “tablet,”
Administration of vadadustat tablets and ferric citrate hydrate: after fasting for at least 10 hours, subjects would eat breakfast over a period of 10 minutes, then immediately after finishing the meal (5 minutes after finishing the meal), 1 vadadustat tablet (150 mg) and 8 tablets of ferric citrate hydrate (containing 2000 mg of ferric citrate) would be taken orally with 200 mL of water (extra water may be drunk if more is needed when taking the tablets, and the extra volume will be recorded). After breakfast, subjects would fast until the end of the collection of blood samples at 4 hours after administration of the study drug. After collection of blood samples at 4 hours after administration of the study drug, subjects would eat lunch over a period of 20 minutes, then immediately after finishing the meal, 8 tablets of ferric citrate hydrate (containing 2000 mg of ferric citrate) would be taken orally with 200 mL of water (extra water may be drunk if more is needed when taking the tablet, and the extra volume would be recorded). […]

[3] = Phase 1 oral iron interaction study, Cohort 2 (before meal): sucroferric oxyhydroxide; type: in vivo, human
Experimental: as §1, §2, §3
In Cohort 2, 20 subjects were further randomized into 2 groups (10 subjects per group) and the evaluation period was divided into 2 periods during the study:
as §4, with “10 hours and immediately before eating” for “10 hours, subjects would eat”, “breakfast” for “breakfast over a period of 10 minutes, then immediately after finishing the meal”, “minutes before starting” for “minutes after finishing”, “mg) will” for “mg) would”, “of water, then breakfast would be eaten over a period of 10 minutes” for “of water”
Administration of vadadustat tablets and sucroferric oxyhydroxide: after fasting for at least 10 hours and immediately before eating breakfast (5 minutes before starting the meal), subjects would chew and swallow 2 tablets of sucroferric oxyhydroxide (containing 1000 mg of iron), then 1 vadadustat tablet (150 mg) would be taken orally with 200 mL of water, then breakfast would be eaten over a period of 10 minutes (extra water may be drunk if more is needed when taking the tablets, and the extra volume would be recorded). After breakfast, subjects would fast until the end of the collection of blood samples at 4 hours after administration of the study drug. After blood samples were collected at 4 hours after administration of the study drug and immediately before lunch, subjects would chew and swallow 2 tablets of sucroferric oxyhydroxide (containing 1000 mg of iron), then eat lunch over a period of 20 minutes. After lunch, subjects will fast until dinner, and immediately before dinner at 10 hours after administration of the study drug, chew and swallow 2 tablets of sucroferric oxyhydroxide (containing 1000 mg of iron), then eat dinner over a period of 20 minutes. Subjects would fast from dinner until breakfast the next morning.

[4] = Phase 1 oral iron interaction study, Cohort 3 (fasting): dried ferrous sulfate slow release; type: in vivo, human
Experimental: as §1, §2, §3
In Cohort 3, 20 subjects were further randomized into 2 groups (10 subjects per group) and the evaluation period was divided into 2 periods during the study:
as §4, with “hours,” for “hours, subjects would eat breakfast over a period of 10 minutes, then immediately after finishing the meal (5 minutes after finishing the meal),”, “Subjects” for “After breakfast, subjects”
as §4, with “and dried ferrous sulfate:” for “alone:”, “hours,” for “hours, subjects would eat breakfast over a period of 10 minutes, then immediately after finishing the meal (5 minutes after finishing the meal),”, “mg) and 2 tablets of dried ferrous sulfate (containing 210 mg of iron)” for “mg)”, “tablets,” for “tablet,”, “Subjects” for “After breakfast, subjects”

[5] = Phase I calcium acetate interaction study; type: in vivo, human; settings: vadadustat administered concurrently with calcium acetate
Experimental: A phase I, open-label, fixed-sequence study was conducted in healthy adult subjects to assess the effect of 1) a single oral dose of calcium acetate on the pharmacokinetics of a single oral dose of vadadustat.
The study included screening (28 days maximum), 9-day treatment period, and a 14-day follow-up period post last dose.
Pharmacokinetics. A predose PK blood sample was collected on Day 1. […] The 48-hour postdose sample was collected before vadadustat administration on Days 3, 5, and 7. The following parameters were calculated and analyzed: AUC0-∞, AUC0-last, Cmax, Tmax, Kel, CIB, Vc/F, and t1/2.
Subjects were dosed approximately at the same designated time on each dosing day, where applicable. Study drugs were administered with approximately 8 ounces (240 mL) of water at room temperature in a seated position. Subjects were instructed to drink the full 8 ounces of water, and not to chew or break the tablets/gelcaps. […]

[6] = Phase I single-dose study, moderate hepatic impairment versus normal hepatic function; type: in vivo, human; settings: moderate hepatic impairment versus normal liver function
Experimental: A phase I, open-label, parallel-group, single-dose study was conducted to evaluate the pharmacokinetics (PK) of 450 mg vadadustat administered in adults with moderate hepatic impairment (Child-Pugh Class B) versus those with normal hepatic function. The pharmacokinetic (pK) parameters of Compound 1 were characterized. Safety and tolerability were assessed throughout the study.
Inclusion criteria: participants were male and female adults between 18 and 70 years of age, with either normal hepatic function or moderate hepatic impairment based on the Child-Pugh classification (Child-Pugh Class B [score 7-9]). Moderate hepatic impairment was defined by the presence and severity of elevated bilirubin levels, decreased serum albumin levels, elevated international normalized ratios >2.20, ascites, and hepatic encephalopathy.
Pharmacokinetics. Blood samples for the evaluation of the PK of Compound 1 and its metabolites were collected predose and at 0.5, 1, 1.5, 2, 3, 4, 6, 9, 12, 18, 24, 36, 48, 60, and 72 hours postdose. Urine was collected predose and at 0, 4, 8, 12, 24, 48, and 72 hours post dose to measure Compound 1 excretion and its O-glucuronide metabolite. […] PK parameters Ae0-72, Fe %0-72, and CL, were estimated from the urine concentration-time profiles.
8 subjects with hepatic impairment and 8 matched subjects with normal hepatic function were enrolled in the study. All subjects received a single oral 450-mg dose of vadadustat on Day 1 and were required to fast for at least 10 hours before dosing and for 4 hours after dosing.

[7] = target: human PHD2 (Homo sapiens, UniProt Q9GZT9); test: biochemical
[8] = Phase I ferrous sulfate tablet interaction study;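 also: crossover in fasted human subjects with four-day washout between periods, plasma glucuronide metabolite pharmacokinetics, ratios computed as metabolite over parent for AUC and Cmax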
[9] = Citric acid ferric hydrate tablet 2000 mg as ferric citrate
[10] = Sodium ferrous citrate preparation 200 mg iron
[11] = with ferric citrate hydrate versus Compound 1 alone
[12] = with sodium ferrous citrate versus Compound 1 alone
[13] = Sucroferric oxyhydroxide chewable tablets 1000 mg iron, Compound 1 150 mg, simultaneous
[14] = with sucroferric oxyhydroxide versus Compound 1 alone
[15] = Iron sulfate slow release tablet 210 mg iron, Compound 1 150 mg, simultaneous
[16] = with dried ferrous sulfate (slow release) versus Compound 1 alone
[17] = Compound 1 + Iron/Compound 1, ferrous sulfate 65 mg iron

## O=C(O)CNC(=O)c1ncc(-c2cccc(Cl)c2)cc1O [Compound 1, {[5-(3-chlorophenyl)-3-hydroxypyridine-2-carbonyl]amino}acetic acid]
[1]
  Ratio of the geometric mean of AUC0-inf, fed versus fasted: 94%
  Ratio of the geometric mean of Cmax, fed versus fasted: 73%
[2]; [9]
  AUC0-∞, Ratio of geometric mean value Combined/alone: 31.10%
  Cmax, Ratio of geometric mean value Combined/alone: 36.25%
[2]; [10]
  AUC0-∞, Ratio of geometric mean value Combined/alone: 44.79%
  Cmax, Ratio of geometric mean value Combined/alone: 48.66%
[2]; [11]
  AUC(0-last), Geometric Mean Ratio: 31.39%
  Kel, Geometric Mean Ratio: 125.00%
  t1/2, Geometric Mean Ratio: 80.00%
[2]; [12]
  AUC(0-last), Geometric Mean Ratio: 44.76%
  Kel, Geometric Mean Ratio: 99.76%
  t1/2, Geometric Mean Ratio: 100.25%
[3]; [13]
  AUC0-∞, Ratio of geometric mean value Combined/alone: 45.99%
  Cmax, Ratio of geometric mean value Combined/alone: 57.95%
[3]; [14]
  AUC(0-inf), Geometric Mean Ratio: 46% and 45.99%
  AUC(0-last), Geometric Mean Ratio: 46.56%
  Cmax, Geometric Mean Ratio: 58% and 57.95%
  Kel, Geometric Mean Ratio: 119.41%
  t1/2, Geometric Mean Ratio: 83.74%
[4]; [15]
  AUC0-∞, Ratio of geometric mean value Combined/alone: 10.31%
  Cmax, Ratio of geometric mean value Combined/alone: 8.09%
[4]; [16]
  AUC(0-last), Geometric Mean Ratio: 9.72%
  Kel, Geometric Mean Ratio: 107.72%
  t1/2, Geometric Mean Ratio: 92.83%
[5]
  geometric LS mean ratio of AUC0-∞ to vadadustat alone: 45.00%
[6]
  AUC0-inf, Geometric LSM Ratio (T/R), Total Compound 1: 106%
  AUC0-inf, Geometric LSM Ratio (T/R), Unbound Compound 1: 124%
  AUC0-last, Geometric LSM Ratio (T/R), Total Compound 1: 105%
  AUC0-last, Geometric LSM Ratio (T/R), Unbound Compound 1: 124%
  Cmax, Geometric LSM Ratio (T/R), Total Compound 1: 102%
  Cmax, Geometric LSM Ratio (T/R), Unbound Compound 1: 120%
[6]; total
  GM Ratio AUC0-inf: 1.06
  GM Ratio AUC0-last: 1.05
  GM Ratio Cmax: 1.02
[7]
  IC50: 11.8 nM
[8]; [17]
  AUC(0-inf), Geometric Mean Ratio: 46.3%
  AUC(0-t), Geometric Mean Ratio: 46.0%
  Cmax, Geometric Mean Ratio: 49.3%
[8]; in vivo
  AUC0-∞, Ratio of geometric mean value Combined/alone: 46.0%
  Cmax, Ratio of geometric mean value Combined/alone: 49.3%
